Values quoted from earlier work in publication PMC4708017, “Antiplasmodial activity of iron(II) and ruthenium(II) organometallic complexes against Plasmodium falciparum blood parasites” (Memórias do Instituto Oswaldo Cruz, 2015).

Details: ref Held et al. 2015a; cited from earlier work

Substance: ferroquine
- half-life: > 20 days
